Results: ChEMBL document CHEMBL4819022, “Discovery of JNJ-63576253: A Clinical Stage Androgen Receptor Antagonist for F877L Mutant and Wild-Type Castration-Resistant Prostate Cancer (mCRPC)” (J Med Chem, 2021)

How the values were obtained:
[1] = biological target: Androgen receptor F877L mutant (Homo sapiens); assay: Antagonist activity at VP16-AR F877L mutant (unknown origin) transfected in human HepG2 cells cotransfected with ARE-LUC incubated for 48 hrs in presence of AR agonist R1881 by steady-glo luciferase reporter gene assay
[2] = biological target: Androgen receptor (Homo sapiens, UniProt P10275); assay: Antagonist activity at AR wild-type (unknown origin) transfected in human LNCAP cells cotransfected with ARE-LUC incubated for 20 to 24 hrs in presence of AR agonist R1881 by steady-glo luciferase reporter gene assay; type: cell-based
[3] = tested on: Androgen receptor (Homo sapiens), P10275 [F877L]; assay: Antagonist activity at AR F877L mutant (unknown origin) transfected in human LNCAP cells cotransfected with ARE-LUC incubated for 20 to 24 hrs in presence of AR agonist R1881 by steady-glo luciferase reporter gene assay relative to control; type: cell-based; conditions: filed as antagonist, time 20-24 hrs

## CN1CCC(Oc2ccc(N3C(=S)N(c4cnc(C#N)c(C(F)(F)F)c4)C(=O)C34CCC4)cc2)CC1
[1]
  IC50: 127 nM
[2]
  IC50: 191 nM

## N#Cc1ncc(N2C(=O)C3(CCC3)N(c3ccc(O)cc3)C2=S)cc1C(F)(F)F
[3]
  Imax: > 90%
